For the experiment, the target named is Serine/threonine-protein kinase B-raf (Homo sapiens, UniProt P15056, V600E).

Chains of the proteins cited; added tags and fusions are not shown. Residues count along the entry.
UniProt P15056, 2-766 V600E limits assumed: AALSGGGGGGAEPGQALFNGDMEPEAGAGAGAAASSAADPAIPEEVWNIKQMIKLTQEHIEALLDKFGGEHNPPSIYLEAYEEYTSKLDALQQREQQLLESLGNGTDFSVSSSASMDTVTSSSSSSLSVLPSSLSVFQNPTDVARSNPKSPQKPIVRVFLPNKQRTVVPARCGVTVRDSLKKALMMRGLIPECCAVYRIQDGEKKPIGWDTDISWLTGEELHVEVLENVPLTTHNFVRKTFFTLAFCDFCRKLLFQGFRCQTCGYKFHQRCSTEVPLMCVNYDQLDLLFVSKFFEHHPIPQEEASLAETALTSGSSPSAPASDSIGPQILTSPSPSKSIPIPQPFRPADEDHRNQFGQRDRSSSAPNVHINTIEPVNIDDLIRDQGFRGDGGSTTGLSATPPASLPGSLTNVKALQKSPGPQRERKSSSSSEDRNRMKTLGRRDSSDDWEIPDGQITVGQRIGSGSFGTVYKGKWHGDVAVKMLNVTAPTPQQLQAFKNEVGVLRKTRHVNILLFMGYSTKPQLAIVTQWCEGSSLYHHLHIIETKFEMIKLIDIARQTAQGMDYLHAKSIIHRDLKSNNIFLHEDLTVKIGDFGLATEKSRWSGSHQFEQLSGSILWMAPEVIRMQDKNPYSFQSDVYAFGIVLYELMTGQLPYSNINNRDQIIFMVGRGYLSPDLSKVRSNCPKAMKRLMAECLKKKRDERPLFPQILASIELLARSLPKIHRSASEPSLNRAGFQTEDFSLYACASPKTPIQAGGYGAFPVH

The structures appear in SMILES notation.

As usually defined, the IC50 is the concentration needed to halve the response being measured. Lower therefore signals higher potency.

Consider `COc1nnc(-c2cc(NC(=O)c3ccnc(C(C)(C)F)c3)cnc2C)cc1N1CCOCC1`, for which inhibition was half-maximal at 4.9 nM (IC50).
